MITF TRPM1 inh – MITF TRPM1 promoter inhibition in SK-MEL-5 cells; SK-MEL-5 TRPM1 promoter luciferase, 24 h; inhibition, % at 12.5 µM; 330,000 tested, 0.83% active;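 active = mean inhibition across replicates of 60% or more, whatever share of single replicates reaches that level; inconclusive = some that reach 60%, reason not given; inactive = mean inhibition across replicates below 60%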
miR122 inh – blocks miR-122 activity in Huh7 sensor cells; Huh7 miR-122 Renilla luciferase sensor, 48 h; neutral wells = 0, positive control = 100; activation (reporter increase), % at 12.5 µM; 340,000 tested, 0.3% active; AID 602342;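 active = mean replicate activation score at least 90 and every replicate individually at or above 90; inconclusive = only one of the two criteria met; inactive = neither criterion met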;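 also: higher luciferase means less miR-122 activity so hits act as miR-122 inhibitors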
MITF TRPM1 HTS – MITF TRPM1 promoter activation in melanoma cells; SK-MEL-5 TRPM1-promoter luciferase, 24 h; % of positive control, neutral wells = 0; activation, % at 12.5 µM; 300,000 tested, 0.75% active;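 active = mean activation of at least 80% with every replicate also reaching 80%; inconclusive = mean reaches 80% but some replicate falls short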;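 also: 0% = neutral control wells and 100% = parthenolide positive control wells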
Yeast UUG start – alters start codon recognition fidelity in yeast. S. cerevisiae UUG-firefly luciferase reporter, luminescence/redox ratio. 350,000 tested, 0.13% active. activity score, % at 18.7 µM. AID 602363;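 active means replicate mean at a twofold rise or more, about +100% in these data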;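 further: firefly luciferase made from a UUG start codon reports start codon fidelity; reporter light over untreated wells divided by growth signal over untreated wells; some hits fall short of that in this replicate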
PGC1a acetyl inh – lowers PGC1a acetylation signal in U2OS cells; AlphaScreen anti-acetyl-lysine; with virally co-expressed GCN5 acetyltransferase; inhibition, % at 15.6 µM; 350,000 tested, 0.17% active; AID 651687;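 active = every replicate shows inhibition of at least 40%; inconclusive = mean inhibition at least 40% but some replicate below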;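 also: 0% = neutral control wells and 100% = positive control wells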
Wnt bcat act – activators of Wnt/beta-catenin signaling. Wnt/beta-catenin reporter cell assay, activator, plate reader. activation, % at 9.35 µM. 300,000 tested, 1.2% active. AID 743398; in the data active = activation above about 30%, passing the limit was not always enough; inconclusive = no clear call, values can overlap the other calls;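 also: 0% = neutral control wells and 100% = positive control wells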
The depositor's hits bear a star; ? = inconclusive; nt = not tested or not shown; [ ] = remark or other dose. In the library only some 2.1% were active in any assay of this set; here they are far more common.

SMILES | MITF TRPM1 inh | miR122 inh | MITF TRPM1 HTS | Yeast UUG start | PGC1a acetyl inh | Wnt bcat act
O=C(Nc1ccc(S(=O)(=O)NC2=NCCCCC2)cc1)c1cccs1 | 0 | 7 | -1 | -5 | -9 | -4
Cc1nc2ccc(NC(=O)c3cncc(Br)c3)cc2s1 | -92 | 10 | 92* | nt | 30 | 18
Cc1nc2ccc(NC(=O)Cc3ccccc3F)cc2s1 | -124 | nt | 121* | nt | nt | -1
Cc1nc2ccc(NC(=O)c3cccs3)cc2s1 | -112 | -6 | 121* | -10 | nt | 25
CCCNC(=O)N1[C@H](CO)[C@@H]2c3ccccc3N(C(=O)c3ccc(F)cc3)C[C@@H]21 | nt | -12[16.7 µM] | nt | 41 | -10 | nt
C[C@@H]1CN([C@H](C)CO)C(=O)c2cccc(NC(=O)C3CCCCC3)c2O[C@H]1CN(C)S(=O)(=O)c1ccc(Cl)cc1 | nt | -9[16.7 µM] | nt | 2 | -1 | nt
O=C(Cc1ccccc1[N+](=O)[O-])NCc1ccc(Cl)cc1Cl | -96 | nt | 94* | nt | nt | 17
O=C(N[C@H]1CC[C@@H](CCNC(=O)C2CCC2)O[C@H]1CO)c1ccncc1 | nt | nt | nt | 8 | 8 | nt
C=C(C)C1CC=C(C)C(=NNC(=O)c2ccncc2)C1 (stereo unspecified) | 5 | -5 | -4 | -17 | 7 | -1
C=C(C)C1CC=C(C)/C(=N/NC(=O)c2cccs2)C1 (stereo unspecified) | -92 | 0 | 98* | -18 | 0 | 27
COc1ccc(S(=O)(=O)Nc2ccc3c(c2)C(=O)N([C@@H](C)CO)C[C@@H](C)[C@@H](CN(C)C(=O)CCCN(C)C)OCCCC[C@@H](C)O3)cc1 | nt | 6[16.7 µM] | nt | 3 | 1 | nt
COc1cc(C(CCN2CCCC2)c2c(OC)cc(OC)c3c(C)cc(=O)oc23)cc(OC)c1OC (stereo unspecified) | nt | 0 | nt | -2 | nt | 1
CCN(CC)C(=O)CC(c1ccc(N(C)C)cc1)c1c(OC)cc(OC)c2c(-c3ccccc3)cc(=O)oc12 (stereo unspecified) | 9 | 99* | -9 | -13 | -21 | -4
COc1ccc(C(CC(=O)N2CCCC(C)C2)c2c(OC)cc(OC)c3c(-c4ccccc4)cc(=O)oc23)cc1 (stereo unspecified) | 10 | 92* | -4 | -13 | -5 | -2
CCN(CC)C(=O)CC(c1ccc(N(C)C)cc1)c1c(OC)cc(OC)c2ccc(=O)oc12 (stereo unspecified) | 3 | 3 | -4 | -12 | 16 | 1
COc1cc(C(CCN2CCCCC2)c2c(OC)cc(OC)c3c(-c4ccccc4)cc(=O)oc23)cc(OC)c1OC (stereo unspecified) | 85* | 34 | -84 | 18 | -32 | -6
COc1cc(C(CCN2CCCC(C)C2)c2c(OC)cc(OC)c3c(-c4ccccc4)cc(=O)oc23)cc(OC)c1OC (stereo unspecified) | 90* | 21 | -90 | 8 | -28 | nt
Cc1ccc(S(=O)(=O)N(C)C[C@H]2OCCCC[C@@H](C)Oc3ccc(NS(=O)(=O)c4cccs4)cc3C(=O)N([C@@H](C)CO)C[C@H]2C)cc1 | nt | 1[16.7 µM] | nt | 9 | -8 | nt
Cc1ccc(CN(C)C[C@H]2OCc3cn(nn3)CCCC(=O)N([C@@H](C)CO)C[C@@H]2C)cc1 | nt | 4[16.7 µM] | nt | -4 | -5 | nt
COc1cc2cc(C(c3nnnn3C(C)(C)C)N3CCc4ccccc4C3)c(=O)[nH]c2cc1OC (stereo unspecified) | 16 | -1 | -14 | -10 | -5 | 34*
O=C1/C(=C/c2cccnc2)CCc2c1[nH]c1ccccc21 | -81 | nt | ? | nt | 26 | 5
CC(C)C/C=C1\CCc2c([nH]c3ccccc23)C1=O | -62 | 8 | 62 | 0 | nt | 39*
CCOC(=O)c1cc([N+](=O)[O-])c([N+](=O)[O-])cc1NC(C)=O | 88* | -5 | -88 | -40 | -2 | -2
O=[N+]([O-])c1cc(-c2ncccn2)c([N+](=O)[O-])s1 | nt | 0 | -58 | -19 | 61* | 1
O=C(Nc1ncccn1)c1cc([N+](=O)[O-])cc([N+](=O)[O-])c1 | -3 | nt | 3 | nt | nt | -5
C[C@H]1CN([C@@H](C)CO)C(=O)c2cc(NS(=O)(=O)c3cn(C)cn3)ccc2O[C@@H]1CN(C)Cc1ccc(C(=O)O)cc1 | nt | -6[16.7 µM] | nt | -13 | 16 | nt
Cc1cccc(S(=O)(=O)N2C[C@H]3[C@@H](c4ccccc42)[C@@H](CO)N3C(=O)C2CC2)c1 | nt | -7[16.7 µM] | nt | -4 | 0 | nt
CCOC(=O)C1=C(O)/C(=C/c2cn(CC(=O)NCC3CCCO3)c3ccccc23)SC1=Nc1ccc(C)cc1 (stereo unspecified) | 88* | 3 | -88 | -1 | 1 | nt
COc1ccc(S(=O)(=O)Nc2ccc3c(c2)CC(=O)N([C@@H](C)CO)C[C@H](C)[C@H](CN(C)S(=O)(=O)c2cccs2)O3)cc1 | nt | 3[16.7 µM] | nt | 14 | 2 | nt
O=C(OCCC12CC3CC(CC(C3)C1)C2)c1ccc(NCc2cc(O)ccc2O)cc1 | 67* | nt | -66 | nt | nt | -3
O=C(OCC12CC3CC(CC(C3)C1)C2)c1ccc(NCc2cc(O)ccc2O)cc1 | 36 | nt | -35 | nt | nt | -3
CO[C@H](CN(C)S(=O)(=O)c1ccccc1)[C@@H](C)CN(Cc1ccccc1Cl)[C@H](C)CO | nt | nt | nt | nt | -15 | nt
Cc1ccc(-c2ccc3c(c2)O[C@@H](CN(C)CC2CC2)[C@@H](C)CN([C@@H](C)CO)S3(=O)=O)cc1 | nt | 11[16.7 µM] | nt | 14 | 1 | nt
N=c1c2c(-c3ccccc3)c(-c3ccccc3)n(Cc3ccco3)c2ncn1CCCn1ccnc1 | 88* | -4 | -88 | -23 | nt | -7
C[C@H](NC(=O)C[C@@H]1C[C@H]2c3cc(NC(=O)NC4CCCCC4)ccc3O[C@H]2[C@H](CO)O1)c1ccccc1 | nt | 0[16.7 µM] | nt | nt | -1 | nt
O=S(=O)(Nc1ccc2cn[nH]c2c1)c1ccc(Cl)cc1 | 17 | 7 | -16 | -8 | -12 | nt
Cc1cc(S(=O)(=O)Nc2ccc3cn[nH]c3c2)c(C)cc1Cl | -13 | 144* | 9 | -18 | nt | -3
O=C(Nc1ccc(Cl)cc1)N[C@H]1CC[C@H](CCNS(=O)(=O)c2ccccc2F)O[C@H]1CO | nt | nt | nt | 21 | 1 | nt
C[C@H](CO)N1C[C@H](C)[C@H](CN(C)S(=O)(=O)c2ccc(F)cc2)Oc2ccc(NC(=O)NC3CCCCC3)cc2C1=O | nt | -6[16.7 µM] | nt | 11 | 0 | nt
COCC(=O)N(C)C[C@H]1Oc2ncc(-c3ccccc3C)cc2C(=O)N([C@H](C)CO)C[C@@H]1C | nt | 1[16.7 µM] | nt | 1 | nt | nt

An excerpt from above in order of the Yeast UUG start value, falling:
SMILES | MITF TRPM1 inh | miR122 inh | MITF TRPM1 HTS | Yeast UUG start | PGC1a acetyl inh | Wnt bcat act
O=C(Nc1ccc(Cl)cc1)N[C@H]1CC[C@H](CCNS(=O)(=O)c2ccccc2F)O[C@H]1CO | nt | nt | nt | 21 | 1 | nt
C[C@H](CO)N1C[C@H](C)[C@H](CN(C)S(=O)(=O)c2ccc(F)cc2)Oc2ccc(NC(=O)NC3CCCCC3)cc2C1=O | nt | -6[16.7 µM] | nt | 11 | 0 | nt
COCC(=O)N(C)C[C@H]1Oc2ncc(-c3ccccc3C)cc2C(=O)N([C@H](C)CO)C[C@@H]1C | nt | 1[16.7 µM] | nt | 1 | nt | nt
CC(C)C/C=C1\CCc2c([nH]c3ccccc23)C1=O | -62 | 8 | 62 | 0 | nt | 39*
C[C@H]1CN([C@@H](C)CO)C(=O)c2cc(NS(=O)(=O)c3cn(C)cn3)ccc2O[C@@H]1CN(C)Cc1ccc(C(=O)O)cc1 | nt | -6[16.7 µM] | nt | -13 | 16 | nt

Next entries follow:
SMILES | MITF TRPM1 inh | miR122 inh | MITF TRPM1 HTS | Yeast UUG start | PGC1a acetyl inh | Wnt bcat act
O=C(O)c1ccc(COc2ccc(CO)cc2Cl)cc1 | -36 | 3 | 36 | -24 | 9 | 21
O=C(O)c1cccc(COc2ccc3c(c2)CCC3)c1 | 96* | -4 | -95 | -84 | 18 | -8
COc1ccc(C(=O)CCc2ccccc2)cc1 | -90 | -2 | 98* | -15 | 8 | 14
COc1ccc(OCc2cccc(C(=O)O)c2)cc1 | 97* | -1 | -96 | nt | 8 | nt
